Assay: Foam quality and stability screen in 70% w/w ethanol solution
Type: physicochemical
Parameters: key: Poor: little to no foam generated; Moderate: some foam generated, and/or foam generated collapsed rapidly; Good: large amount of foam was generated and foam was stable (did not collapse rapidly)
Conditions: approximately one gram of component in 15 grams of 70% w/w ethanol solution (aqueous), shaken by hand for 15 seconds
Protocol: A number of different components were screened to evaluate their ability to create a stable foam in a 70% w/w ethanol solution (aqueous). For this evaluation, approximately one gram of each component was added to 15 grams of the ethanol solution in a vial.

lsosteareth-3 Octanoate
Foam Profile: Poor

From patent US9089129B2, “Non-aerosol foaming alcohol hand sanitizer” (AMERICAN STERILIZER COMPANY, priority 2011, dated 2015)
